Molecular target: Adenosine receptor A2a (Homo sapiens, UniProt P29274)
Test: Binding Assay
Excerpt: Binding affinity of ligand at human adenosine receptors expressed in CHO cell.

`NCCNC(=O)[C@H]1O[C@@H](n2cnc3c(N)ncnc32)[C@H](O)[C@@H]1O` [5'-N-[(2-AMINO)ETHYL CARBOXAMIDO] ADENOSINE] showed a Ki of 3.12 µM.

From BindingDB's records for doi:10.1016/j.chembiol.2004.12.010 (National Institutes of Health, 2005)
